The values below are quoted from earlier work in patent US20140194559A1, “Novel Inhibitor Compositions and Methods of Use” (NuFarm UK Limited, priority 2011, published 2014).

For the data set the following is noted: hazard classification; cited from earlier work.

As for `CCC(C)c1cc([N+](=O)[O-])cc([N+](=O)[O-])c1O` (centres unmarked) [DNBP, 4,6-Dinitro-2-sec-butyl phenol, reference compound], the “Oral Toxicity” value is listed as “Yes” and the “Toxic by Inhalation” value is recorded as “Yes”.
